We go through 2 molecules from US7053101B2, “1,3,8-triazaspiro[4,5]decan-4-one derivatives useful for the treatment of ORL-1 receptor mediated disorders” (dated 2006).

By UniProt entry, the sequences of proteins in these tests, tags left out. Where a name states a change or a piece, a line headed by the entry shows the natural chain unless it says otherwise.
UniProt P41146: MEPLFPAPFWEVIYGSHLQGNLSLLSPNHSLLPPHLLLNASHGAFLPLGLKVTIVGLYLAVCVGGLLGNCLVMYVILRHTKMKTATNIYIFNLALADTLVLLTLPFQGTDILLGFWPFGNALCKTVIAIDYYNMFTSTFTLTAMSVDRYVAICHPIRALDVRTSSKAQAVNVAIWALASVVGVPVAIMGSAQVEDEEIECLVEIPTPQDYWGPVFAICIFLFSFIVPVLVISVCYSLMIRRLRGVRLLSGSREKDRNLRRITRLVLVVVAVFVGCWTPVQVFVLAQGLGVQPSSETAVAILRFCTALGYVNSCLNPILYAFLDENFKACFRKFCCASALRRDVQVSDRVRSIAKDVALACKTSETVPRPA

For orientation: IC50 means the concentration that inhibits the measured activity by half. A higher IC50 goes with a need for much substance.

Structures are written as SMILES.

This test deals with human nociceptin receptor (ORL-1) (Homo sapiens, UniProt P41146). Nature of the test: nociceptin receptor binding assay (125I-Tyr14-nociceptin displacement, HEK293 cell membranes). Particulars: 125I-Tyr14-nociceptin 0.5 nM.

`O=C1NCN(Cc2ccccc2)C12CCN(Cc1ccccc1-c1ccco1)CC2`: the IC50 was 1590 nM.
For `O=C1NCN(Cc2ccccc2)C12CCN(Cc1ccccc1-c1cccs1)CC2` the value was 2380 nM.
